Many of the other results were omitted from the sample, so hits are more common in it than they were.
GIV-Gai inh = inhibitors of GIV GBA-motif binding to rat Galpha-i3. actives 0.42% (n = 210,000). Galpha-i3/FITC-GIV peptide fluorescence polarization, 90 min; active compounds read low; scaled: aluminum fluoride 0%, vehicle 100%. AID 1224905. percent of control (FP), % (no concentration beside the values). P08753;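 active means replicate mean at 85% of control or lower, very high polarization wells dropped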;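 further: wells of about 15 µL received 100 nL stock; the first replicate is given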
Active calls of the source: *.

SMILES | GIV-Gai inh
O=C1/C(=C/c2cccs2)CN(Cc2ccccc2)C/C1=C\c1cccs1 | 107
Cn1cccc1/C=C1\CS/C(=C\c2cccn2C)C1=O | 131
CCS(=O)(=O)CCSc1nc(-c2ccccc2)cc(-c2ccccc2)c1C#N | 98
Cc1ccccc1S(=O)(=O)N1CCN(c2nc3cc(Br)ccc3n3cccc23)CC1 | 99
COc1ccccc1NC(=O)c1sc2ncnc(N3CCCCC3)c2c1C | 106
CC(C)(C)NC(=O)CCSc1ccccc1 | 103
Cn1c(C(=O)Nc2cccc(Cl)c2)cc2c(=O)oc3ccccc3c21 | 109
CC1C(C#N)=C(N)SC(N)=C1C#N | -20*
CC(=O)C1SC(N)=C(C#N)C1c1ccc(Cl)c(Cl)c1 (stereo unspecified) | 110
N#CC1=C(N)SC(N)=C(C#N)C1 | 226
CCCCN(C)c1ncc(C(=O)O)cc1NS(=O)(=O)c1ccc(Br)cc1 | 113
CC(C)c1ccc(S(=O)(=O)Nc2cc(C(=O)O)cnc2N(C)C)cc1 | 75*
CC(C)Cc1ccc(S(=O)(=O)Nc2cc(C(=O)O)cnc2N(C)C)cc1 | 101
CSc1cccc(NC(=O)C2CCN(S(=O)(=O)c3c(C)n[nH]c3C)CC2)c1 | 101
COC(=O)c1ccc(/C=C(\C#N)C(N)=S)cc1 | 103
COc1cc(/C=C(\C#N)C(=O)c2ccc(O)c(O)c2)cc(I)c1O | -31*
COc1ccc(/C=C(\C#N)C(N)=O)cc1OC | 109
Brc1ccc2nc(N3CCOCC3)nc(-c3ccccc3)c2c1 | 101
COc1ccc(NC(=O)CC2=C(c3ccccc3)CCC2=O)cc1 | 106
CC1=CS/C(=C(/C#N)C(=O)N2CCCCC2)N1c1ccccc1 | 99
N#C/C(C(=O)c1ccccc1)=C1/SC=C(N)N1c1ccccc1 | -51*
CC1=CS/C(=C(/C#N)C(N)=O)N1c1ccccc1 | 104
Cn1ccc2cc(N)ccc21 | 102
Brc1ccc2c(c1)c(-c1ccccc1)cc1nnc(-c3ccccc3)n12 | 109
COc1ccc(S(=O)(=O)CCc2nc3ccccc3n2CC(=O)O)cc1 | 106
Additional results
SMILES | GIV-Gai inh
CCn1ccc(C(=O)N2CCCn3nc(-c4cccs4)cc3C2)n1 | 104
COCCCNC(=O)c1cnc2c(C)cccn2c1=O | 99
O=c1[nH]c2c(s1)C=Nc1cc3ccccc3cc1N2 | 59*
Cn1cc(S(=O)(=O)N2CCCC2)cc1C(=O)N1CCn2c1nc1ccccc12 | 105
Cc1nn(-c2ccccc2)c2sc(C(=O)NCCN(C)C3CCCCC3)cc12 | 98
Cc1ccc(-c2noc(CCC(=O)N(C)c3ccccc3)n2)cc1 | 103
Cc1ccc(-c2ccc(OCCNC(=O)C3CC3)nn2)cc1 | 96
CC(Sc1nc2c([nH]1)c(=O)n(C)c(=O)n2C)C(=O)O (stereo unspecified) | 85*
Cn1c(=O)c2[nH]c(SCC(=O)c3ccc(F)cc3)nc2n(C)c1=O | 101
COc1ccc(C(=O)CSc2nc3c([nH]2)c(=O)n(C)c(=O)n3C)cc1 | 104
N#CC1=C(N)N2C(=C(C#N)C1c1c(F)cccc1Cl)Sc1ccccc12 (stereo unspecified) | 106
Cc1ccc(CN(Cc2ccco2)C(=O)c2ccccc2)cc1 | 97
N#C/C(=C\c1ccc(-c2ccc(C(=O)O)cc2)o1)c1nc2ccccc2[nH]1 | -6.1*
N#C/C(=C\c1ccc(-c2ccc(Cl)c(C(=O)O)c2)o1)c1nc2ccccc2[nH]1 | -58*
Cc1ccc2nc(/C(C#N)=C/c3ccc(-c4cccc(Cl)c4)o3)[nH]c2c1 | 243
N#C/C(=C/c1ccc(-c2ccc(Cl)c(C(=O)O)c2)o1)C(=O)NC1CCCC1 | 125
CCOC(=O)c1ccc(-c2ccc(C=C(C#N)C#N)o2)cc1 | 105
N#C/C(=C/c1ccc(-c2ccc(C(=O)O)cc2)o1)c1ccc(Cl)cc1 | 113
CS(=O)(=O)N1CCCN(C(=O)C2CCCC2)CC1 | 101
O=c1/c(=C/c2cccc(Br)c2)sc2nc3cc(Br)cnc3n12 | 103
CN(C(=O)c1ccc(-c2cc(N3CCCCC3)ncn2)cc1)C1CCCCC1 | 99
CC(=O)[C@@H]1[C@@H](c2ccccc2)C(C#N)(C#N)[C@H]2C=Cc3ccccc3N12 | 115
CCCc1cc(C2CCCN2Cc2cccc(OCC)c2O)no1 (stereo unspecified) | 98
CN1C(=O)CSc2ccc(NC(=O)Nc3ccc(Cl)cn3)cc21 | 109
CCOC(=O)c1ccc(NC(=O)C2CC(=O)N(C)C(=Nc3cccc(C(F)(F)F)c3)S2)cc1 (stereo unspecified) | 102
(continued)
SMILES | GIV-Gai inh
C=CCOc1ccccc1C(c1c(C)[nH]n(-c2ccccc2)c1=O)c1c(C)[nH]n(-c2ccccc2)c1=O | 96
O=c1[nH]nc(SCc2ccccc2)c(=O)[nH]1 | 99
Cc1cnc(=O)[nH]c1SCc1cccc2ccccc12 | 105
O=c1[nH]nc(SCc2cccc3ccccc23)c(=O)[nH]1 | 85*
O=C(CCc1nnc(C(=O)Nc2ccccc2)s1)NC1CCN(Cc2ccccc2)CC1 | 97
Cc1nn(Cc2c(F)cccc2Cl)c(=O)c2noc(C)c12 | 106

As a short view, part of the list above.
SMILES | GIV-Gai inh
O=c1[nH]nc(SCc2ccccc2)c(=O)[nH]1 | 99
Cc1cnc(=O)[nH]c1SCc1cccc2ccccc12 | 105
O=c1[nH]nc(SCc2cccc3ccccc23)c(=O)[nH]1 | 85*
O=C(CCc1nnc(C(=O)Nc2ccccc2)s1)NC1CCN(Cc2ccccc2)CC1 | 97
Cc1nn(Cc2c(F)cccc2Cl)c(=O)c2noc(C)c12 | 106

Screening results as filed in PubChem BioAssay.
